# Measured values reported in PubChem BioAssay AID651661 (Broad Institute, 2012).
# This is a selection; strong and weak results do not stand in their true shares. Some structures show a salt or complex split into parts, the way the source records it. Calls of active or inactive are those of the source.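 Rule for the calls: active = mean inhibition of at least 50% after viability correction, with every replicate also passing that limit; inconclusive = mean reaches 50% but only one of two replicates passes; inactive = the rest.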
# Assay: EWS/Fli-driven NR0B1 reporter inhibitors, primary screen, A673 cells, NR0B1 luciferase, luminescence, MLPCN library (AID 651661);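 note: firefly luciferase signal divided by Alamar Blue viability fluorescence both relative to DMSO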
# Settings: viability-normalised, at 12.6 µM, active compounds read high
row,SMILES,inhibition
1,CP(=O)(Nc1cccc(Br)c1)Oc1ccccc1 (stereo not given),inactive: 9.68%
2,CCOC(=O)c1ccc(NP(C)(=O)Oc2cc(C)cc(C)c2)cc1 (stereo not given),inactive: -6.44%
3,Cc1cc(C)cc(OP(C)(=O)Nc2ccc(C)cc2C)c1 (stereo not given),inactive: 0.0355%
4,O=C(O)c1cccc(Nc2c([N+](=O)[O-])cc([N+](=O)[O-])cc2[N+](=O)[O-])c1,inactive: 2.35%
5,CN1CCCCC1COC(=O)C1(O)c2ccccc2CCc2ccccc21 (stereo not given),inactive: -8.05%
6,COc1ccc(-c2ccccn2)cc1.O=[N+]([O-])c1cc([N+](=O)[O-])c(O)c([N+](=O)[O-])c1,inactive: -26.6%
7,CCCOc1ccc(NP(C)(=O)Oc2ccc(Cl)cc2)cc1 (stereo not given),inactive: 5.18%
8,O=[N+]([O-])c1cc([N+](=O)[O-])c(Nc2nnnn2CCO)c([N+](=O)[O-])c1,inactive: -6.87%
9,CCOC(=O)C(CC)C1=NC(C)(C)Cc2ccccc21.O=[N+]([O-])c1cc([N+](=O)[O-])c(O)c([N+](=O)[O-])c1 (stereo not given),inactive: -2.3%
10,O=[N+]([O-])c1cc([N+](=O)[O-])c(-c2cnn(-c3ccccc3)c2)c([N+](=O)[O-])c1,inactive: 27.3%
11,O=[N+]([O-])c1cc([N+](=O)[O-])c(-n2nnc3ccccc32)c([N+](=O)[O-])c1,inactive: -4.65%
12,CN(Cc1cccnc1)C(=O)COc1ccc(Cl)c(Cl)c1.O=[N+]([O-])c1cc([N+](=O)[O-])c(O)c([N+](=O)[O-])c1,inactive: 0.411%
13,CCOC(=O)c1ccc(NP(C)(=O)Oc2ccc(OC)cc2)cc1 (stereo not given),inactive: -2.89%
14,O=[N+]([O-])c1cc([N+](=O)[O-])c(O)c([N+](=O)[O-])c1.c1ccc(Oc2ccncc2)cc1,inactive: 13.7%
15,CP(=O)(Nc1ccccn1)Oc1ccc(Cl)cc1 (stereo not given),inactive: -15.8%
16,CP(=O)(Nc1ccc(SC(F)(F)F)cc1)Oc1ccc(Cl)cc1 (stereo not given),inactive: 1.17%
17,CP(=O)(Oc1ccccc1)OC(c1ccccc1)C(F)(F)F (stereo not given),inactive: 2.73%
18,CP(=O)(NC(=O)Nc1ccccc1)Oc1ccccc1 (stereo not given),inactive: -0.583%
19,CP(=O)(Nc1ccccc1Br)Oc1ccccc1 (stereo not given),inactive: -8.82%
20,COc1ccccc1OP(C)(=O)Nc1ccccc1 (stereo not given),inactive: -3.38%

row,SMILES,inhibition
1,Cc1cc(C)cc(OP(C)(N)=O)c1 (stereo not given),inactive: 13.2%
2,COc1ccccc1OP(C)(=O)Nc1cc(Cl)ccc1C (stereo not given),inactive: 9.3%
3,O=[N+]([O-])c1cc([N+](=O)[O-])c(Nc2cccnc2)c([N+](=O)[O-])c1,inactive: 12.3%
4,O=[N+]([O-])c1ccc2c(c1)C=Nc1ccccc1O2,inactive: 15.6%
5,CC(C)(C)c1ccc(OP(C)(=O)Nc2ccc(SC(F)(F)F)cc2)cc1 (stereo not given),inactive: 2.89%
6,Cc1cccc(C)c1OP(C)(N)=O (stereo not given),inactive: 7.69%
7,COc1ccccc1-c1ccccn1.O=[N+]([O-])c1cc([N+](=O)[O-])c(O)c([N+](=O)[O-])c1,inactive: -19.6%
8,CCN(CC)CCCOC(=O)C(O)(c1ccccc1)c1ccccc1,inactive: 7.91%
9,O=[N+]([O-])c1cc([N+](=O)[O-])c(Nc2ccccn2)c([N+](=O)[O-])c1,inactive: 22.1%
10,COc1ccccc1OP(C)(=O)Nc1ccc(Br)cc1 (stereo not given),inactive: 0.421%
11,CP(=O)(Nc1ccc(Cl)cc1Cl)Oc1ccccc1 (stereo not given),inactive: 1.88%
12,CCCCCCCCCCCCCCCC1C[N+](C)(C)CCOP(C)(=O)O1 (stereo not given),inactive: 23.8%
13,CP(=O)(OCCOc1ccccc1)OCCOc1ccccc1,inactive: 0.0445%
14,O=C1C(O)=C([N+](=O)[O-])C(=O)C(O)=C1[N+](=O)[O-],inactive: -1.9%
15,Cc1cc(C)cc(OP(C)(=O)Nc2cccc(C(F)(F)F)c2)c1 (stereo not given),inactive: -3.11%
16,Nc1ccc2c(ccc3cccnc32)n1.O=[N+]([O-])c1cc([N+](=O)[O-])c(O)c([N+](=O)[O-])c1,inactive: -27.4%
17,CCOC(=O)c1ccc(NP(C)(=O)Oc2ccc(Cl)cc2)cc1 (stereo not given),inactive: 11.2%
18,COc1ccccc1OP(C)(=O)Nc1ccccc1Br (stereo not given),inactive: -0.322%
19,CN(C)C(=O)c1c([N+](=O)[O-])cc([N+](=O)[O-])cc1[N+](=O)[O-],inactive: 25.9%
20,O=C(OCCCN1CCCC1)C(O)(c1ccccc1)C1CCCCC1 (stereo not given),inactive: -0.341%

row,SMILES,inhibition
1,CCc1ccc(OP(C)(=O)Nc2cccnc2)cc1 (stereo not given),inactive: 5.27%
2,O=[N+]([O-])c1cc([N+](=O)[O-])c(C(F)(F)F)c([N+](=O)[O-])c1O,inactive: -2.76%
3,CP(=O)(Nc1ccc(SC(F)(F)F)cc1)Oc1ccc(F)cc1 (stereo not given),inactive: 7.32%
4,CCOP(=O)(CC)OCC,inactive: 2.5%
5,O=[N+]([O-])c1ccc(OP2(=O)COCCO2)cc1 (stereo not given),inactive: -3.31%
6,Cc1cc(-c2cccc3ccccc23)c(C)cn1.O=[N+]([O-])c1cc([N+](=O)[O-])c(O)c([N+](=O)[O-])c1,inactive: 8.21%
7,O=[N+]([O-])c1cc([N+](=O)[O-])c(NCC2CCS(=O)(=O)C2)c([N+](=O)[O-])c1 (stereo not given),inactive: 15.1%
8,Cc1c(C(c2ccc3c(c2)OCO3)c2c(C)n(C)n(-c3ccccc3)c2=O)c(=O)n(-c2ccccc2)n1C.O=[N+]([O-])c1cc([N+](=O)[O-])c(O)c([N+](=O)[O-])c1,inactive: -8.92%
9,COc1ccc(NP(C)(=O)Oc2ccccc2OC)cc1 (stereo not given),inactive: 0.591%
10,Cc1c([N+](=O)[O-])cc([N+](=O)[O-])c(Br)c1[N+](=O)[O-],inactive: -5.32%
11,O=[N+]([O-])c1cc([N+](=O)[O-])c(OC2CCCCC2O)c([N+](=O)[O-])c1 (stereo not given),inactive: 0.266%
12,CCCCCOc1ccc(NP(C)(=O)Oc2ccc(Cl)cc2Cl)cc1 (stereo not given),inactive: 18.9%
13,CCN(CC)CCCNc1ccccc1[N+](=O)[O-].O=[N+]([O-])c1cc([N+](=O)[O-])c(O)c([N+](=O)[O-])c1,inactive: -10%
14,COc1ccc(OP(C)(=O)Nc2ccc(SC(F)(F)F)cc2)cc1 (stereo not given),inactive: -7.36%
15,O=C(OC1CN2CCC1CC2)c1ccc([N+](=O)[O-])cc1 (stereo not given),inactive: 7.21%
16,O=C(OCCN1CCN(CCOCc2ccccc2)CC1)C(O)(c1ccccc1)c1ccccc1,inactive: 4.71%
17,COc1ccc2c(c1O)-c1c(O)c(OC)cc3c1[C@H](C2)[N+](C)(C)CC3.O=[N+]([O-])c1cc([N+](=O)[O-])c([O-])c([N+](=O)[O-])c1[O-],inactive: -7.52%
18,O=[N+]([O-])c1cc([N+](=O)[O-])c(Nc2ccc(Cl)cc2)c([N+](=O)[O-])c1,inactive: 18.4%
19,CP(=O)(Nc1ccccc1F)Oc1ccccc1 (stereo not given),inactive: -5.62%
20,CC(C)c1ccc(OP(C)(=O)Nc2ccc(SC(F)(F)F)cc2)cc1 (stereo not given),inactive: -1.42%
